Laboratory results from patent publication US6699901B1, “Dicarboxylato diammine platinum derivatives and compositions comprising them as anti-tumor agents” (priority 2000, dated 2004).
Read-outs that look alike come from different tables or passages of the source.

What was measured:
cancer = test: Typical cases treated by oral capsules and injections; format: in vivo, human
Protocol: 1. The oral capsules were composed of bicycloplatin and adjuvant. The patients took the oral capsules containing 20-30 mg of bicycloplatin.
2. Injections of bicycloplatin water solution at the concentration of 1% in 5 ml per ampoule. Bicycloplatin water solution was dissolved in 100 ml injection containing 5% of glucose and 0.9% of sodium chloride and injected intravenously once every two days, two ampoules every time. 100 ml of sodium chloride injection should be transfused after the dripping of bicycloplatin. A course of treatment took 6 times (12 ampoules). The second course of treatment began after an interval of two weeks. After three consecutive courses of treatment, general examination was taken.

Solubility in water = format: physicochemical
[1] = rabbits intravenous, mice oral
Stability in water = format: physicochemical; details: after dissolved in water
nude mice = test: Acute toxicity dose limiting experiments (LD50)
Protocol: The LD50 of the pharmaceutical composition of the invention is tested as follows, for example: […]

epidermal cells = details: within a certain range of doses
[2] = test system: human normal fibrous cells; details: within a certain range of doses
[3] = for content of platinum in serum: 100 mg iv

Substance: double 1,1-cyclobutane dicarboxylic acid diaminoplatin complex [bicycloplatin]
- side effects (cancer; Patient Li): periodic fever lasting about 10 hours
- hemogram (cancer; Patient Li, 3rd course of treatment): Changes were little in hemogram
- hemogram (cancer; Patient Ma, after five courses of treatment): Changes were little in hemogram
- hemoglobin (cancer; Patient Xu, at discharge): 8.0 g
- number of WBC (cancer; Patient Xu, at discharge): 3000
- Solubility in water (Solubility in water): 4.0 g/100 ml
- time at which concentration dropped to zero in blood [1]: 24 h
- stability in water (Stability in water): can be stored effective for a long period
- LD50 abdominal administration (nude mice; administered abdominally): 283 mg/kg
- LD50 intravenous (nude mice; administered intravenously): 50.46 ± 0.93 mg/kg
- LD50 oral administration (nude mice; taken orally): 500 mg/kg
- injury to human normal epidermal cells (epidermal cells): no injury occurred
- injury to human normal fibrous cells [2]: no injury occurred
- content of platinum in serum ([3]; Rabbit 1 (3.25 kg), 0 hr): 34.6 µg/mL
- content of platinum in serum ([3]; Rabbit 1 (3.25 kg), 0.5 hr): 20.5 µg/mL
- content of platinum in serum ([3]; Rabbit 1 (3.25 kg), 1 hr): 10.4 µg/mL
- content of platinum in serum ([3]; Rabbit 1 (3.25 kg), 2 hr): 6.2 µg/mL
- content of platinum in serum ([3]; Rabbit 1 (3.25 kg), 4 hr): 2.4 µg/mL
- content of platinum in serum ([3]; Rabbit 1 (3.25 kg), 6 hr): 1.9 µg/mL
- content of platinum in serum ([3]; Rabbit 1 (3.25 kg), 8 hr): 1.7 µg/mL
- content of platinum in serum ([3]; Rabbit 1 (3.25 kg), 10 hr): 1.6 µg/mL
- content of platinum in serum ([3]; Rabbit 1 (3.25 kg), 12 hr): 0.9 µg/mL
- content of platinum in serum ([3]; Rabbit 1 (3.25 kg), 24 hr): 0 µg/mL
- content of platinum in serum ([3]; Rabbit 2 (3.5 kg), 0 hr): 58.0 µg/mL
- content of platinum in serum ([3]; Rabbit 2 (3.5 kg), 0.5 hr): 21.8 µg/mL
- content of platinum in serum ([3]; Rabbit 2 (3.5 kg), 1 hr): 20.3 µg/mL
- content of platinum in serum ([3]; Rabbit 2 (3.5 kg), 2 hr): 10.8 µg/mL
- content of platinum in serum ([3]; Rabbit 2 (3.5 kg), 4 hr): 4.2 µg/mL
- content of platinum in serum ([3]; Rabbit 2 (3.5 kg), 6 hr): 2.8 µg/mL
- content of platinum in serum ([3]; Rabbit 2 (3.5 kg), 8 hr): 2.3 µg/mL
- content of platinum in serum ([3]; Rabbit 2 (3.5 kg), 10 hr): 2.1 µg/mL
- content of platinum in serum ([3]; Rabbit 2 (3.5 kg), 12 hr): 2.2 µg/mL
- content of platinum in serum ([3]; Rabbit 2 (3.5 kg), 24 hr): 0 µg/mL
- time at which concentration dropped to zero ([3]; rabbits, 100 mg intravenously): 24 h
